Test results: PMC9217576, “Urease and α-Chymotrypsin Inhibitory Activities and Molecular Docking Studies of Alkaloids Isolated from Medicinal Plant Isatis minima Bunge” (Evidence-based Complementary and Alternative Medicine : eCAM, 2022)

Target: Jack bean urease (Canavalia ensiformis, UniProt P07374)
Assay: In vitro urease inhibition assay (indophenol method)
Format: biochemical

In the case of `O=C1/C(=c2\c3ccccc3n3c(=O)c4ccccc4nc23)Nc2ccccc21` [Candidine], the “inhibitory activity against Jack bean urease (in words)” value is reported as “significant inhibitory activity” and the IC50 (read-out: Urease IC50 ± SEM (Jack bean urease), SEM of five determinations, pH 6.8, 30°C) is reported as 68.2 µM.
